# Earlier results in publication PMC5659385.
# Sequences of proteins named here, by UniProt entry; tags and fusion partners are left off. Residues count along the entry.
# UniProt P01012, 2-386: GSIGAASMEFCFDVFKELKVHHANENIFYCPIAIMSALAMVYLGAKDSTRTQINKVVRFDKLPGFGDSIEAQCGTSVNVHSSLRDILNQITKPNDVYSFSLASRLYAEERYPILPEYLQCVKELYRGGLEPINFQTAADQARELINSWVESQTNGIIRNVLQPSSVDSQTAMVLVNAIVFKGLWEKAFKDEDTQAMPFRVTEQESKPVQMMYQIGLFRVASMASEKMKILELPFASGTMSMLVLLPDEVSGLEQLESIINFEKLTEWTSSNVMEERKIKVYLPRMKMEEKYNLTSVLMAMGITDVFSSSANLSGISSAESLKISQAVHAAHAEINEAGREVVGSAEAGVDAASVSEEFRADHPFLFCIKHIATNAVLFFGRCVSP
# Target: ovalbumin (Gallus gallus) (UniProt P01012)
substance,measurement,value
concanavalin A (from UniProt P02866),Kd,38 nM
